Results published in article PMC8110578, “Phenylethynylbenzyl-modified biguanides inhibit pancreatic cancer tumor growth” (Scientific Reports, 2021).

System: KP4 cells
Assay: Cell death assay (trypan blue), KP4 cells
Assay type: cell-based, human
Details: metformin 5 mM, phenformin 50 µM, 24 h
Source text: Experimental. […] At the end of the treatments, adherent cells were recovered by trypsinization, along with floating cells recovered by centrifugation of the culture medium. Floating and adherent cells were pooled together. The faction of dead cells was quantified by counting the proportion of trypan blue-positive (dead cells) and the proportion of living cells (trypan blue-negative).

`[H]/N=C(/N)N/C(=N/[H])NCCc1ccccc1` [phenformin, reference compound] was tested, and the “Effect on the fraction of dead KP4 cells (in words)” value was “no significant effects”.
